# Experimental data: patent US9012398B2, “Acylated exendin-4 compounds” (priority 2006, dated 2015)
# Amino acid sequences for entries named in this document (tags omitted). Residues count along the entry.
# UniProt P43220, 24-463: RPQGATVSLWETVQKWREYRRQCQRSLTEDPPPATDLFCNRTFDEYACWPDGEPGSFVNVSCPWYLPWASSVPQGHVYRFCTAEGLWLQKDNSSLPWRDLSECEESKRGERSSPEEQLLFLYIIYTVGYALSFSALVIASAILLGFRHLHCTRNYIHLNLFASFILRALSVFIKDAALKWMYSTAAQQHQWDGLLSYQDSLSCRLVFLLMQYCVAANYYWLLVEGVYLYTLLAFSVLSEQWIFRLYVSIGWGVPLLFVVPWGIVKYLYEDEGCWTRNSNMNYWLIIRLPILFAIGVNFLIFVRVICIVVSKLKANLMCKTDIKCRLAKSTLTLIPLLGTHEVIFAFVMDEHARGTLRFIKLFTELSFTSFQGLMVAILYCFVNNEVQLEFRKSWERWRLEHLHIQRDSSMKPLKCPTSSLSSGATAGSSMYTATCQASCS
# Target: T1, human GLP-1 receptor (Homo sapiens, UniProt P43220)
# T1 construct: expressed in transfected cells; host or cells: BHK cells, clone BHK-467-12A; plasma membrane preparation
# Experiment: Functional receptor assay: cAMP formation in plasma membranes of BHK cells expressing the cloned human GLP-1 receptor (GLP1cAMPma)
# Assay type: biochemical
# Method: The term “insulinotropic agent” as used herein means a compound which is an agonist of the human GLP-1 receptor, i.e. a compound which stimulates the formation of cAMP in a suitable medium containing the human GLP-1 receptor (one such medium disclosed below). The potency of an insulinotropic agent is determined by calculating the EC50 value from the dose-response curve as described below.
# The cells were washed twice in phosphate buffered saline and harvested with Versene. Plasma membranes were prepared from the cells by homogenisation with an Ultraturrax in buffer 1 (20 mM HEPES-Na, 10 mM EDTA, pH 7.4). The homogenate was centrifuged at 48,000×g for 15 min at 4° C. The pellet was suspended by homogenization in buffer 2 (20 mM HEPES-Na, 0.1 mM EDTA, pH 7.4), then centrifuged at 48,000×g for 15 min at 4° C. The washing procedure was repeated one more time. The final pellet was suspended in buffer 2 and used immediately for assays or stored at −80° C.
# The functional receptor assay was carried out by measuring cyclic AMP (cAMP) as a response to stimulation by the insulinotropic agent. cAMP formed was quantified by the AlphaScreen™ cAMP Kit (Perkin Elmer Life Sciences). […]
smiles,measurement,value
"CCCCCCCCCCCCCCCCCCCC(=O)NCCOCCOCC(=O)NCCOCCOCC(=O)NCCOCCOCC(=O)NCCCC[C@H](NC(=O)[C@@H]1CCCN1C(=O)CNC(=O)CNC(=O)[C@H](CCCNC(=N)N)NC(=O)[C@@H](NC(=O)[C@H](CC(C)C)NC(=O)[C@H](Cc1c[nH]c2ccccc12)NC(=O)[C@H](CCC(=O)O)NC(=O)[C@@H](NC(=O)[C@H](Cc1ccccc1)NC(=O)[C@H](CC(C)C)NC(=O)[C@H](CCCNC(=N)N)NC(=O)[C@@H](NC(=O)[C@H](C)NC(=O)[C@H](CCC(=O)O)NC(=O)[C@H](CCC(=O)O)NC(=O)[C@H](CCC(=O)O)NC(=O)[C@H](CC(C)C)NC(=O)[C@H](CCC(N)=O)NC(=O)[C@H](CCCNC(=N)N)NC(=O)[C@H](CO)NC(=O)[C@H](CC(C)C)NC(=O)[C@H](CC(=O)O)NC(=O)[C@H](CO)NC(=O)[C@@H](NC(=O)[C@H](Cc1ccccc1)NC(=O)[C@@H](NC(=O)CNC(=O)[C@H](CCC(=O)O)NC(=O)CNC(=O)[C@@H](N)Cc1c[nH]cn1)[C@@H](C)O)[C@@H](C)O)C(C)C)[C@@H](C)CC)C(C)C)C(=O)N[C@@H](CO)C(=O)NCC(=O)N[C@@H](C)C(=O)N1CCC[C@H]1C(=O)N1CCC[C@H]1C(=O)N1CCC[C@H]1C(=O)N[C@@H](CO)C(N)=O [Example 13, N-ε^32-[2-(2-[2-(2-[2-(2-[2-(2-[2-(Eicosanoylamino)ethoxy]ethoxy)acetylamino]ethoxy)ethoxy]acetylamino)ethoxy]ethoxy)acetyl][Arg^12,28,Leu^14,Val^27,Lys^32] Exendin-4-(1-39)amide]",EC50,0.27 nM
